This note sets out measurements from ChEMBL document CHEMBL1149477, “Monocyclic thiophenes as protein tyrosine phosphatase 1B inhibitors: capturing interactions with Asp48” (Bioorg Med Chem Lett, 2006).

The target of the test is T1, Tyrosine-protein phosphatase non-receptor type 1 (Homo sapiens, UniProt P18031).
T1 sequence (P18031 whole entry): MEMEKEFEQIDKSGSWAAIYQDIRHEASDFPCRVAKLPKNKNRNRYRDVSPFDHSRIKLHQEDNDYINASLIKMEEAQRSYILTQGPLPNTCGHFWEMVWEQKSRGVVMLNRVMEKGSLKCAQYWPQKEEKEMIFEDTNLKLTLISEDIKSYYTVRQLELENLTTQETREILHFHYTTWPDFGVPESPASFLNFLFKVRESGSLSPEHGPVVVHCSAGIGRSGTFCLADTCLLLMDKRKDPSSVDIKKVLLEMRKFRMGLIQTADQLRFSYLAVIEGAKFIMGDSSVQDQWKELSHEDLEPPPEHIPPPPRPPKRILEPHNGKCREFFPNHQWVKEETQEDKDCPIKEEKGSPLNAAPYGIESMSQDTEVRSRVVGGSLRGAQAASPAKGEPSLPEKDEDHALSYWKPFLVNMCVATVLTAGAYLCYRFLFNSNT
Kind of test: Inhibition of PTP1B.

Consider `O=C(O)COc1c(Br)csc1C(=O)O`, for which affinity was put at a Ki of 160 µM.

On to `O=C(O)COc1c(C(=O)O)sc(-c2ccc(O)cc2)c1Br`, for which the Ki (commonly a dissociation constant, usually derived from enzyme kinetics or from competition with a known ligand) stood at 0.3 µM.
